The species entered for assay [1] is Mus musculus. The experiment in a line: Analgesic activity test by employing tail-flick procedure in CF-1 female mice.
The species named for assay [2] is Mus musculus. The experiment in a line: Analgesic activity test by employing tail-pinch procedure in CF-1 female mice.
The species named for assay [3] is Mus musculus. The experiment in a line: Analgesic activity test by employing HCl writhing procedure in CF-1 female mice. For orientation: An intraperitoneal irritant provokes the stretching counted in writhing tests.
Assay [4] is filed under the species Mus musculus. The experiment in a line: Antagonistic activity by measuring blockade of morphine-induced elevation of tail flick latency in CF-1 female mice. Background: In hot-plate and tail-flick tests a longer latency is read as antinociception.

The structures appear in SMILES notation.

A word on the ED50: it is the dose that gives a 50% effect, or the effect in half of the subjects. High values mean a need for a large dose, low ones an effect at a small dose. In the case of `C=CCN(C)C1(c2cccc(O)c2)CCC2(CC1)OCCO2`, the ED50 in the assay filed under Mus musculus [1], in the assay filed under Mus musculus [2] and in the assay filed under Mus musculus [3] was above 200 mg/kg throughout.
As for `CN(CC1CC1)C1(c2cccc(O)c2)CCC2(CC1)OCCO2`, the median effective dose (ED50) in the assay filed under Mus musculus [1], in the assay filed under Mus musculus [2] and in the assay filed under Mus musculus [3] was above 100 mg/kg each time.
Compound `CN(C)C1(c2cccc(O)c2)CCC(O)(CCc2ccccc2)CC1` (configuration not stated) registered an ED50 in the assay filed under Mus musculus [4] above 100 mg/kg.

(Values after ChEMBL document CHEMBL1121803, “4-aryl-4-aminocyclohexanones and their derivatives, a novel class of analgesics. 3. m-Hydroxyphenyl derivates” (1981).)
